Measurements: US7332503B2, “Aporphine esters and their use in therapy” (Axon Biochemicals B.V., priority 2000, dated 2008)

Conditions: samples diluted with MeOH for API MS; Apo formed

Substance: Mono-Hexadecanoyl Apomorphine [Example 4]
- sensitivity to methanolysis: very sensitive to methanolysis
